Protein sequences, listed by entry. Tags and fused reporters are not part of them. Residues count along the entry.
UniProt P06213, 28-758 limits assumed: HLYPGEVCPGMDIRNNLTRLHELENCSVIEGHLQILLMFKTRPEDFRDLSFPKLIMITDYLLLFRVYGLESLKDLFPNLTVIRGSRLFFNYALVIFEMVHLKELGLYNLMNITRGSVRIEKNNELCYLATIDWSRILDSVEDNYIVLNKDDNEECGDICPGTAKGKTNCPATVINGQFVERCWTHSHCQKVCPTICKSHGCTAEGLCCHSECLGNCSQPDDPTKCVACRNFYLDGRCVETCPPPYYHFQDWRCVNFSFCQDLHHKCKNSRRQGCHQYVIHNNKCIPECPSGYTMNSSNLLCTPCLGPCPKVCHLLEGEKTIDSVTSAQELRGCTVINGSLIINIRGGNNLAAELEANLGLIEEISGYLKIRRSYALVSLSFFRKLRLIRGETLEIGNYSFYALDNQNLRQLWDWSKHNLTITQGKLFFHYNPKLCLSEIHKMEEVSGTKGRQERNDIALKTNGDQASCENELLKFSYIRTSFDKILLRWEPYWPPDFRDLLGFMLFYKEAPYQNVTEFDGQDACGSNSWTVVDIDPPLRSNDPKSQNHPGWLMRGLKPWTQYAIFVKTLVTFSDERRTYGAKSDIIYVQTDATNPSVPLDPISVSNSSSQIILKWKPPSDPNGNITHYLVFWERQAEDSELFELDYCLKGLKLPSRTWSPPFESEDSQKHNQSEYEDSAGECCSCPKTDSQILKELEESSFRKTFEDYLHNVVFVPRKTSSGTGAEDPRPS
UniProt P06213, 763-1382 partner limits assumed: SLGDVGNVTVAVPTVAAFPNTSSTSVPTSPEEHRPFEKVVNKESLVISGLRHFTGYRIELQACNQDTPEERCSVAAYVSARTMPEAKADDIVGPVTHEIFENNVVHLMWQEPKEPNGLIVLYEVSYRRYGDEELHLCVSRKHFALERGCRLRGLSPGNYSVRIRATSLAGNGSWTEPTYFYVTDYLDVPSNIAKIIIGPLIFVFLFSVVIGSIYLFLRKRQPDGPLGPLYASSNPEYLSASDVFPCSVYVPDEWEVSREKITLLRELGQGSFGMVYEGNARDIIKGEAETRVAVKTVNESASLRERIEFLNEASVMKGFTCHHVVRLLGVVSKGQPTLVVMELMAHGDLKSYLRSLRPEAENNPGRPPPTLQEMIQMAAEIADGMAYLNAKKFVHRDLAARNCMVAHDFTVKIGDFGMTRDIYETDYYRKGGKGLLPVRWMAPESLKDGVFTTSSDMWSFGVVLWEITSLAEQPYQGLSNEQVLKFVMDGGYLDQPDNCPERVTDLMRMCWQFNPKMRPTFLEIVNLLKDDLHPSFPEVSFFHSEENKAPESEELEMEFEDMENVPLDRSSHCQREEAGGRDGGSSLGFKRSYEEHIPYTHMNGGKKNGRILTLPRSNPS

In patent US12410228B2, “Insulin analogs” (UNIVERSITY OF UTAH RESEARCH FOUNDATION, priority 2016, dated 2025):

Key:
[1] = format: physicochemical; conditions: pH 7.4
[2] = molecular target: T1, human IR (isoform B) (Homo sapiens, UniProt P06213); format: binding
T1 construct: expressed in transfected cells; host or cells: R- IR-B cells, lysed with Triton X-100 and captured with anti-IR antibody 83-7; This comes from the general description of the Denley et al. 2004 format

[3] = molecular target: T2, human IR-B (Homo sapiens, UniProt P06213); experiment: cell-based
T2 construct: expressed in transfected cells; host or cells: NIH 3T3 mouse fibroblasts overexpressing human IR-B (puromycin selection)

CC[C@H](C)[C@@H]1NC(=O)[C@H](CC(C(=O)O)C(=O)O)NC(=O)[C@H](CO)NC(=O)CNC(=O)[C@@H](NC(=O)[C@H](CCCNC(=N)N)NC(=O)[C@H](Cc2c[nH]cn2)NC(=O)[C@H](CCCCN)NC(=O)[C@@H]2C[C@@H](O)CN2C(=O)[C@@H](NC(=O)[C@H](CC(=O)O)NC(=O)[C@H](Cc2ccccc2)NC(=O)[C@@H](N)[C@@H](C)O)[C@@H](C)O)CSSC[C@@H]2NC(=O)[C@@H](NC(=O)[C@H](Cc3c[nH]cn3)NC(=O)[C@H](CC(C(=O)O)C(=O)O)NC(=O)[C@@H](NC(=O)[C@@H](NC(=O)CN)C(C)C)C(C)C)CSSC[C@H](NC(=O)[C@@H]3CCCN3C(=O)[C@H](CCCNC(=N)N)NC(=O)[C@H](Cc3c[nH]cn3)NC2=O)C(=O)N[C@@H](CO)C(=O)N[C@@H](CC(N)=O)C(=O)N[C@@H](C)C(=O)N[C@@H](CCC(=O)O)C(=O)N[C@@H](Cc2ccccc2)C(=O)N[C@@H](CCCCN)C(=O)N[C@@H](CCCCN)C(=O)N[C@@H](Cc2ccc(O)cc2)C(=O)N[C@H](C(N)=O)CSSC[C@@H](C(=O)N[C@@H](Cc2ccc(O)cc2)C(=O)N[C@@H](CCCNC(=N)N)C(=O)O)NC(=O)[C@H](CC(C)C)NC(=O)[C@H](CC(=O)O)NC(=O)[C@H](CCSC)NC(=O)[C@H](Cc2ccc(O)cc2)NC(=O)[C@H](CO)NC(=O)[C@H](CC(N)=O)NC(=O)[C@H]([C@@H](C)O)NC1=O [Con-Ins G1]
apparent MW of single sedimenting species [1]: 5380 ± 55 g/mol
self-association state in solution [1]: predominantly monomeric
activity / affinity at human IR relative to human insulin (fold less) [2]: 30 fold
EC50 [3]: 6.03 nM
activity in Akt phosphorylation assay relative to hIns [3]: ca ten-fold less active
